AlphaSeq binding of Ab-95 light chain variants to a spike HR2 peptide

Source: Engelhart et al. 2022 (doi:10.1038/s41597-022-01779-4), MIT Lincoln Laboratory and A-Alpha Bio; data file from the FLAb repository.

Target: peptide PDVDLGDISGINAS, taken from heptad repeat 2 (HR2) of SARS-CoV-2 spike.

Ab-95 is the parent antibody, in scFv form: VH, then a 15-residue (Gly4Ser)3 linker, then VL. The heavy chain is unchanged in all variants.
VH: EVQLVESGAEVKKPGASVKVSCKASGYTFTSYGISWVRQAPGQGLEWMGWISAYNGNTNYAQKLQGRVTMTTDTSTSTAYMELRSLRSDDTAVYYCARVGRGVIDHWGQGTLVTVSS
VL: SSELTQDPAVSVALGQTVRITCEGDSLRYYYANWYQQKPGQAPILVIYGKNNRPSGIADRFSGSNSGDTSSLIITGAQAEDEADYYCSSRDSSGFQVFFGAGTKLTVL

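The library (AAYL52) carries one to three amino acid substitutions per variant, with no insertions or deletions. The assay is AlphaSeq: two haploid yeast populations carry antibody and antigen on their surface. The frequency of each diploid, read from paired DNA barcodes, reflects how well the two displayed proteins bind. Each replicate has its own calibration line, from reference interactions of the BCL2 family. The assay was run in three technical replicates.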

Variants are written as CDR1, CDR2 and CDR3 of the light chain (limits as in the source). Parent: EGDSLRYYYAN, GKNNRPS, SSRDSSGFQVF.
All variants listed here change S89 of the VL, counted from its first residue.
Each Kd is an estimate from the mating assay, the geometric mean of the replicates in which the pair was seen; lower is stronger.
"nd" means that the variant was in the library but no mating with the target was seen in any replicate; the authors take this as a sign of poor binding, and no number exists.
Entries are sorted by rising average, undetected variants last.
Parent in this assay: reference entry 200 nM, copy in this library 180 nM.
As a blank, each scFv also met three strains without target: over library AAYL52, 28% of these pairings were detected, typically at 8.2 µM and seldom below 800 nM.

With ESDSLRYYYAN | GKNNRPM | SVRDSSGFQVF the result was 90 nM (3 of 3 replicates).
With EGDSLRYYYAN | GKNNRPS | SIRDSSGFQVF the result was 140 nM (3 of 3 replicates).
With ELDSLRYYYAN | GKGNRPS | SGRDSSGFQVF the result was 180 nM (3 of 3 replicates).
With EGDSLRYYMAN | GKNNRPS | STRDSSGFQVH the result was 310 nM (3 of 3 replicates).
With EGDSLEYYYAN | GKNNRPS | SIRDSSGFLVF the result was 320 nM (3 of 3 replicates).
With EGDSLRYYYAN | GKNNRPS | SVRESYGFQVF the result was 330 nM (3 of 3 replicates).
With EGDSLRYYYAN | GKNNRPS | SYRASTGFQVF the result was 350 nM (3 of 3 replicates).
With EGDSLRYYYTN | GANNRPS | SDRDSSGFQVF the result was 380 nM (3 of 3 replicates).
With EGDSLRDYYAN | GKNNRPS | SMRDSSGFQVF the result was 420 nM (3 of 3 replicates).
With EGGSLRYYYAN | GKNNRPS | SNRDSSGFSVF the result was 570 nM (1 of 3 replicates).
With EGQSLRYYYAN | GKNNRPS | SRRDSSGFQVF the result was 570 nM (2 of 3 replicates).
With EGKSLRYYYAN | GKNNRPS | SFRDSSKFQVF the result was 650 nM (3 of 3 replicates).
With EGDSLRYYYAK | GKNNRPS | STRDSSGFQVK the result was 750 nM (1 of 3 replicates).
With EGDSLRYYLAN | GKNNRPS | SCRDSSGFTVF the result was 1.2 µM (3 of 3 replicates).
With EGDSLRYYYAN | GKNNRPS | STRDSSGFQEF the result was 1.4 µM (2 of 3 replicates).
With EGDSLRNYYAN | PKNNRPS | SRRDSSGFQVF the result was 1.9 µM (1 of 3 replicates).
With EGDSLYYYYAN | GKNNRPS | SFRDRSGFQVF the result was 2.3 µM (3 of 3 replicates).
With EGDSSRYYYAN | GKNNRPS | SFRDSSGFQVF the result was 3.0 µM (1 of 3 replicates).
With EGDSLFYYYAN | GKNNRPS | SQWDSSGFQVF the result was 3.2 µM (3 of 3 replicates).
With EGDSLRYYYQN | MKNNRPS | SGRDSSGFQVF the result was 4.2 µM (3 of 3 replicates).
With EGDSLRTYYAN | GKNNRPS | SDRDSSGHQVF the result was 4.8 µM (2 of 3 replicates).
With EGDSLWYYYAN | GKNNRPS | RHRDSSGFQVF the result was 5.4 µM (2 of 3 replicates).
With EGDSLRYYYAN | IKNKRPS | SFRDSSGFQVF the result was 7.3 µM (1 of 3 replicates).
With EGDSLRYYYAN | GKNNRPS | PHRDSSGFQVF the result was 11 µM (2 of 3 replicates).
With EGDSDRCYYAN | GKNNRPS | SIRDSSGFQVF the result was 15 µM (2 of 3 replicates).
With EGDSHRYYYAN | GKNNRPS | SMRDSFGFQVF the result was 20 µM (2 of 3 replicates).
With EGDSLRTYYAN | GKRNRPS | SRRDSSGFQVF the result was 270 µM (1 of 3 replicates).
With EGQSLRYYYAN | RKNNRPS | SKRDSSGFQVF the result was nd (0 of 3 replicates).
With EGDSLRYYEAN | GKNNRPS | SERDNSGFQVF the result was nd (0 of 3 replicates).
With EGDHLRYYYAN | GKNNDPS | SWRDSSGFQVF the result was nd (0 of 3 replicates).

The first 3 entries again:

| CDR-L1 | CDR-L2 | CDR-L3 | Kd (apparent) | replicates with signal |
|---|---|---|---|---|
| ESDSLRYYYAN | GKNNRPM | SVRDSSGFQVF | 90 nM | 3/3 |
| EGDSLRYYYAN | GKNNRPS | SIRDSSGFQVF | 140 nM | 3/3 |
| ELDSLRYYYAN | GKGNRPS | SGRDSSGFQVF | 180 nM | 3/3 |